# In PubChem BioAssay AID504692 (The Scripps Research Institute Molecular Screening Center, 2011):
# By UniProt entry, the sequences of proteins in these tests, tags left out.
# UniProt P47898, whole entry, looked up: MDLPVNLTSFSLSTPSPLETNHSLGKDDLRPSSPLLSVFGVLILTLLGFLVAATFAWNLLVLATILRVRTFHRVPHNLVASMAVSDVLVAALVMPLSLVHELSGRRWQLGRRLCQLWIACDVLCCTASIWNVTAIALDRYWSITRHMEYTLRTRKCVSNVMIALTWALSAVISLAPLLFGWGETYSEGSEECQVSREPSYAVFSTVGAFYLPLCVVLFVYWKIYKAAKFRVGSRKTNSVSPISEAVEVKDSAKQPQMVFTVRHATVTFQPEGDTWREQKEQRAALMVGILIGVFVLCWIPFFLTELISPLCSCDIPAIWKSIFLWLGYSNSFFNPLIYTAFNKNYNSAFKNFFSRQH
# The list shows a part of the results, in another mix than the full data. Active and inactive are the calls of the source. Cut-off read from the data, not from the text of the source: active = activation mostly above about 9.5% (no sharp cut-off); inactive = mostly below about 7.6%.
# Target: 5-hydroxytryptamine receptor 5A (Homo sapiens) (UniProt P47898)
# Assay: activation of human 5-HT5A receptor – cell-based, luminescence, full-deck HTS, counter-screen for OPRM1-OPRD1 heterodimer agonist project, primary screen (AID 504692);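 note: 0% = cells with vehicle only and 100% = reference agonist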
# Settings: HTR5A agonist assay, at 9.3 µM, hits give high values
row,SMILES,activation
1,O=C(Nc1ccc2c(c1)nc1n2CCN(Cc2ccccc2)C1)c1cccs1,inactive: 0.79%
2,CC(=O)c1ccc(NC(=O)C2CC(=O)Nc3nc4ccccc4n32)cc1 (centres undefined),inactive: 1.1%
3,Nc1nonc1-c1nc2ccccc2n1CC(=O)Nc1ccccc1,inactive: 0.98%
4,CCC(=O)Nc1nnc(/C=C/c2ccc(OC)cc2)s1,inactive: -0.55%
5,CCN(CC)CCNC(=O)Cn1c(-c2ccccn2)nc2ccccc21,inactive: -1.23%
6,CCN(CC)CCn1c(=N)n(CCOc2ccccc2)c2ccccc21,inactive: -1.14%
7,CC(C)(C)NC(=O)Cn1c(SCC(=O)NC2CCCC2)nc2ccccc21,inactive: 0.15%
8,CCN(N=Nc1nonc1N)c1nonc1N,inactive: -3.91%
9,CCC(=O)N(c1ccccc1)C1CCCCC1,inactive: -3.37%
10,Cn1c(=O)c2c(nc(NCc3ccccc3)n2CC(=O)NCc2ccccc2)n(C)c1=O,inactive: 2.66%
11,Nc1cccc2ccc([As](=O)(O)O)cc12,inactive: 0.47%
12,O=C(Cn1cnc2ccccc21)Nc1cccc([N+](=O)[O-])c1,inactive: 5%
13,CC1CCCCN1C(=O)CSc1nc2ccccc2n1CC(=O)N1CCc2ccccc21 (centres undefined),inactive: 0.22%
14,O=C(Cn1c(SCC(=O)N2CCc3ccccc3C2)nc2ccccc21)NC1CCCC1,inactive: 6.1%
15,Cn1c(=O)n(CC(=O)NCc2cccnc2)c2ccccc21,inactive: -1.93%
16,O=C(CCCCCNC(=O)N1CCn2c1nc1ccccc12)N[C@@H](Cc1ccccc1)C(=O)O,inactive: 8.8%
17,Nc1ncnc2c1ncn2C1OC(CO)C(O)C1N (centres undefined),inactive: -1.48%
18,CC(C)C[C@H](NC(=O)N1CCn2c1nc1ccccc12)C(=O)N1CCCCC1,active: 8.73%
19,CN1C(=O)Cn2c1nc1ccccc12,inactive: 1.13%
20,C[C@H](O)[C@@H]1C(=O)N2CCc3ccc(N4CCOCC4)cc3[C@@H]2C[C@@H]1N(C)C(=O)Nc1ccccc1,inactive: -0.57%

row,SMILES,activation
1,CC(C)CSc1nc2ccccc2n1CC(N)=O,inactive: 0.3%
2,Cn1c(=O)c2ncn(CC(=O)Nc3ccc4c5c(cccc35)CC4)c2n(C)c1=O,inactive: 6.19%
3,CC(=O)Nc1ccc([As](=O)(O)O)cc1,inactive: 2.19%
4,O=C(Cn1c(NCCO)nc2ccccc21)NCC(F)(F)F,inactive: 3.57%
5,Cc1ccc2c(c1)C1CN(C)CCC1N2C(=O)c1ccccc1NS(=O)(=O)c1ccc(F)cc1 (centres undefined),inactive: -0.1%
6,CCOc1cccc(N2C(=O)CC(n3cnc4ccccc43)C2=O)c1 (centres undefined),inactive: -0.4%
7,O=C(Cn1c(COc2ccccc2)nc2ccccc21)Nc1cc(Cl)cc(Cl)c1,inactive: 8.35%
8,O=C(O)c1ccccc1[As](=O)(O)O,inactive: 1.58%
9,COc1ccc(N2CCN(C(=O)Cn3cnc4c3c(=O)n(C)c(=O)n4C)CC2)cc1,inactive: -1%
10,Cn1c(=O)n(CCN2CCOCC2)c(=O)c2c1nc1n2CCN1c1ccc(Oc2ccccc2)cc1,inactive: -0.49%
11,Cn1c(=O)c2c(ncn2CC(=O)NC[C@H]2O[C@@H](n3cnc4c(N)ncnc43)[C@H](O)[C@@H]2O)n(C)c1=O,inactive: 0.68%
12,CCCC1OP(N)(=O)OCC1CC (centres undefined),inactive: -2.36%
13,O=C(Cn1cnc2ccccc21)NCc1ccccc1,inactive: 4.57%
14,COc1ccc(CN(C)C(=O)Cn2cnc3c(OCc4ccccc4)ncnc32)cc1OC,inactive: -0.58%
15,CC(C)[C@H](NC(=O)N1CCn2c1nc1ccccc12)C(=O)NCc1ccccc1Cl,inactive: 3.82%
16,Cc1ccc(C)c(S(=O)(=O)N2CCN(C(=O)Cn3c(C(F)(F)F)nc4ccccc43)CC2)c1,inactive: -0.3%
17,Cc1ccc(CNC(=O)Cn2cnc3c(NCc4ccccc4)ncnc32)o1,inactive: -2.99%
18,Cc1ccc(-c2csc(NCCn3c(-c4ccncc4)nc4ccccc43)n2)cc1,inactive: 1.98%
19,C(=N\c1nc2ccccc2n1CCN1CCCCC1)/c1ccc2c(c1)OCO2,inactive: -0.58%
20,CC(C)NC(=O)CC1C(=O)N(Cc2ccccc2)C(C)c2nc3ccccc3n21 (centres undefined),inactive: 4.64%

row,SMILES,activation
1,CCOC(=O)c1ccccc1NC(=O)Cn1c(-c2nonc2N)nc2ccccc21,inactive: 6.88%
2,O=P(Nc1nc2ccc(Cl)cc2s1)(c1ccccc1)c1ccccc1,inactive: -5.54%
3,O=C(Cn1c(Cc2ccccc2)nc2ccccc21)NCc1ccc2c(c1)OCO2,inactive: -0.9%
4,O=C(Cn1cnc2c(NCc3ccccc3)ncnc21)NCc1nc2ccccc2[nH]1,inactive: -1.68%
5,CC1CCN(C(=O)Cn2c(SCC(=O)Nc3nccs3)nc3ccccc32)CC1,inactive: -1.68%
6,COC(=O)c1ccc(CNC(=O)Cn2cnc3c(OCc4ccccc4)ncnc32)cc1,inactive: 5.17%
7,COC(=O)C1=C(C)N=C2SCCC(=O)N2C1/C=C/c1ccccc1 (centres undefined),inactive: -0.86%
8,Cc1cccc(OCC(O)Cn2c(=N)n(CCN3CCOCC3)c3ccccc32)c1 (centres undefined),inactive: -1.46%
9,Cc1cc(SC(NC(=O)c2ccc(F)cc2)C(Cl)(Cl)Cl)ncn1 (centres undefined),inactive: 2.97%
10,O=C(CSc1nc2ccccc2n1CC(=O)N1CCCC1)NCc1ccc2c(c1)OCO2,inactive: -3.07%
11,CCOP(=O)(Nc1ccccc1)OCC,inactive: -2.76%
12,CCC(=O)Nc1nc2ccccc2n1CCN1CCOCC1,inactive: 6.2%
13,Cc1csc2c(NC3CCN(Cc4ccccc4)CC3)ncnc12,inactive: 5.96%
14,O=C(Cn1c(/C=C/c2ccccc2)nc2ccccc21)Nc1ccc(F)cc1,inactive: 0.41%
15,CCOc1ccc2nc(NC(=O)Cn3cnc4c3c(=O)n(C)c(=O)n4C)sc2c1,inactive: 8.02%
16,Cn1c(=O)c2c(ncn2CC(=O)Nc2nc3ccc(F)cc3s2)n(C)c1=O,inactive: 5.14%
17,CN(C(=O)Cc1ccc(Cl)c(Cl)c1)[C@H]1CCCC[C@@H]1N1CCCC1,inactive: -3.39%
18,Cc1ccc(NP(=O)(Oc2ccccc2F)Oc2ccccc2F)nc1,inactive: 1.08%
19,c1ccc(CN2CCC(Nc3nc(-c4cccs4)nc4ccccc34)CC2)cc1,inactive: 11.3%
